The target in this test is Mu-type opioid receptor (Homo sapiens, UniProt P35372). The conditions noted are these: hek-293t.

The chains behind the UniProt entries cited, without tags or fusion partners.
UniProt P35372, whole entry, looked up: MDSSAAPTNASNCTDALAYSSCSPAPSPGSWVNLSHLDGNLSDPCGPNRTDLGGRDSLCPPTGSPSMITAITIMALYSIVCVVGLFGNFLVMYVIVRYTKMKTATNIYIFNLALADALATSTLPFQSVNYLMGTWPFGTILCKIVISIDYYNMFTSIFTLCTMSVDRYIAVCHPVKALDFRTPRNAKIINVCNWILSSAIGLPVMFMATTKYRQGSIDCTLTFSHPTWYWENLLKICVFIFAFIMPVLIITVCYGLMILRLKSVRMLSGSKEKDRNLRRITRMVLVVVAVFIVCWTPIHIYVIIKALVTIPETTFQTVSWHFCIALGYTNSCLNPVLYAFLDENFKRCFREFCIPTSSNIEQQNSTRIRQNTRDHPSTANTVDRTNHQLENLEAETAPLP

Structures are written as SMILES.

Take `CC1CN(C/C(=C\c2ccccc2)C(=O)NCC(=O)O)CCC1(C)c1cccc(O)c1` (configuration not stated): the IC50 (in general, the point on the concentration scale where inhibition reaches its midpoint) was determined as 1260 nM and the pIC50 (in general, −log10 of the IC50, conventionally taken in molar units) turned out to be 5.89.

The record behind these values is ChEMBL document CHEMBL4038325, “Opioid Receptor Modulators with a Cinnamyl Group” (J Med Chem, 2017).
